{"source": "patent US20060233709A1", "about": "“Method for identifying novel treatments of inflammatory disease in the gut” (priority 2003, published 2006)", "key": {"[1]": {"tested_on": "zebrafish larvae with PSA-induced IBD", "experiment": "In vivo examination of gut architecture and motility (quercetin labelling) in PSA-induced IBD", "conditions": "PSA in embryo medium from 3 to 8 d.p.f., versus control"}, "[2]": {"tested_on": "zebrafish larvae with PSA-induced IBD", "experiment": "Histology (haematoxylin and eosin sections) of gut in PSA-induced IBD", "type": "in vivo", "conditions": "versus control"}, "[3]": {"tested_on": "zebrafish larvae gut epithelium", "experiment": "Transmission electron microscopy of gut epithelium", "conditions": "PSA-exposed samples compared to controls, 8 d.p.f."}, "mast cells": {"tested_on": "mast cells", "experiment": "Mast cell staining and quantification in PSA-induced IBD", "conditions": "fish exposed to PSA, versus control"}, "TNFα": {"tested_on": "TNFα", "experiment": "TNFα wholemount antibody labelling / immunofluorescence in PSA-induced IBD", "conditions": "PSA-exposed samples; staining absent in controls"}}}
{"substance": "trinitrobenzene sulfonic acid", "values": [{"measurement": "Gut architecture in vivo", "setting": "[1]", "value": "the gut was dilated and there was reduction in villus length and expansion of crypts"}, {"measurement": "Peristalsis in vivo", "setting": "[1]", "value": "peristalsis was lost"}, {"measurement": "Goblet cells in mid-intestine and posterior intestine", "setting": "[2]; PSA-exposed samples", "value": "high numbers of goblet cells were observed"}, {"measurement": "Gut histology (lumen, villi, clefts)", "setting": "[2]; fish exposed to PSA", "value": "the lumen of the gut was expanded and the lining of the gut was smooth, devoid of villi and clefts"}, {"measurement": "Gap and tight junctions between cells (TEM)", "setting": "[3]", "value": "loss of gap and tight junctions between cells"}, {"measurement": "Mast cell infiltration throughout the gut", "setting": "mast cells", "value": "markedly increased"}, {"measurement": "TNFα wholemount antibody staining", "setting": "TNFα", "value": "strong staining on the luminal epithelium"}]}
